## Binding of CDR-mutated scFvs to a peptide of the spike HR2 region

Data: MIT Lincoln Laboratory AlphaSeq set, Engelhart et al. 2022, doi:10.1038/s41597-022-01779-4, as distributed in FLAb.

Target peptide (SARS-CoV-2 spike, HR2 region): PDVDLGDISGINAS

The variants keep the light chain, the linker and the frameworks of Ab-14 (scFv order VH, a 15-residue (Gly4Ser)3 linker, VL).
VH: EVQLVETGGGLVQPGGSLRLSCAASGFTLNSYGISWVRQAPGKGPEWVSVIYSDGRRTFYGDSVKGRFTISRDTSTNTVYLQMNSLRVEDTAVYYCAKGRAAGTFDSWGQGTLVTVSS
VL: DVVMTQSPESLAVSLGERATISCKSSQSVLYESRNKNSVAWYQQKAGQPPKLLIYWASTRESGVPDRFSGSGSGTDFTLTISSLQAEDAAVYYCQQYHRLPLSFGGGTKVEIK

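Phage display of a naive human antibody library on the peptide gave the parent. Library AAYL49 holds single substitutions and randomly drawn double and triple substitutions in the CDRs. AlphaSeq pools MATa yeast showing the antibodies with MATalpha yeast showing the peptide. The frequency of each diploid, read from paired DNA barcodes, reflects how well the two displayed proteins bind. The ratio of observed to expected reads was calibrated, replicate by replicate, on BCL2-family standards whose Kd was known from biolayer interferometry. The assay was run in three technical replicates.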

Changes read parent residue, position, new residue, counted from the first residue of the VH shown. The Kd shown is the geometric mean over detected replicates; a lower Kd is a better binder. "not detected" marks a missing value. The strain was present, yet no cells mated with the target were sequenced in any replicate, which points to weak or no binding. Nonspecific signal, from three strains lacking the peptide, appeared in 15% of pairings of library AAYL49, centred on 11 µM (5% of these signals below 680 nM); values are not corrected for it.

changes	Kd (apparent)	detected
V50C+D106V+S107T	120 nM	3/3
Y52G+F105P	13 µM	1/3
D54G+A102W+T104N	not detected	0/3
T28A+G33Y+D62P	not detected	0/3
Y32K+G103I	1.1 µM	3/3
G61R+K65W	270 nM	3/3
S53L+R57P+F59M	310 µM	1/3
G33C+V64A+S107V	74 µM	1/3
Y60E+K65P+G99Q	not detected	0/3
Y32T+S53A+R57P	not detected	0/3
T58K+R100H	5.3 nM	3/3
D62T+R100E+A102R	not detected	0/3
Y32I+D54M+A101L	50 µM	1/3
G26S+S31E+Y32W	210 nM	1/3
S35K+G99Q	960 nM	1/3
G103N+T104K+F105I	25 nM	3/3
G55E+F59A+D62W	not detected	0/3
Y52N+G55W+K65V	not detected	0/3
F27G+D54I+G55L	200 µM	3/3
N30V+F59M+G103R	not detected	0/3
Y32E+G33I	23 µM	1/3
L29A+R57I+T58L	not detected	0/3
Y32M+K65F+G99P	12 µM	2/3
I34Y+V50K+Y52C	340 µM	3/3
S35M+K65I+F105T	not detected	0/3
I34P+D62G+K65S	not detected	0/3
D54A+Y60N	not detected	0/3
T28N+N30Y+Y52A	3.6 µM	3/3
V50Y+R56I	210 µM	1/3
G26H+L29R+G99D	24 µM	2/3
Y32N+G99W+A102S	1.7 µM	1/3
S53G+R57M+R100P	160 µM	1/3
I34T+I51L+G61L	530 nM	2/3
S53N+V64D+S107G	not detected	0/3
F27A+R57T+A101I	350 nM	3/3
T28H+L29S+S63A	not detected	0/3
L29N+I51W+Y52M	16 µM	2/3
Y32D+R57N+K65Q	2.2 µM	2/3
S63H+V64E+G99N	690 nM	1/3
L29A+Y60G+T104K	not detected	0/3
T28D+R57K+G99R	560 nM	1/3
G26A+V50M	not detected	0/3
T28D+T104W	not detected	0/3
F27E+S31W+Y32G	82 µM	2/3
T28N+V50Y+G103L	not detected	0/3
G26I+D62H+A101K	not detected	0/3
S53V+K65E+R100C	not detected	0/3
S35L+G55E+Y60A	not detected	0/3
T28R+F59H+G103W	72 µM	2/3
I51D+R100C+F105W	160 µM	1/3
D54E+R56V+D106A	120 µM	1/3
S31E+Y60C+F105K	430 nM	3/3
G26T+F27R+Y32I	3.4 µM	2/3
L29N+A102F+S107M	66 µM	2/3
S31N+R57C+F59Q	not detected	0/3
I34H+G55A+T58V	490 nM	1/3
S31E+G33T+Y60A	not detected	0/3
S31I+S35T+T58G	not detected	0/3
T28Q+V64C+F105W	not detected	0/3
I34K+S53H+D54V	not detected	0/3
Y52C+R100I	2.0 µM	1/3
T58P+G61M+F105Q	not detected	0/3
L29W+S53A+D62Q	640 nM	2/3
S35I+Y60W+V64W	not detected	0/3
I34N+I51K+R57K	not detected	0/3
S31C+R56I+K65H	720 nM	3/3
F27L+G61I+G99V	not detected	0/3

Repeated from above, the 4 best binders with a signal in all replicates:

| changes | Kd (apparent) | detected |
|---|---|---|
| T58K+R100H | 5.3 nM | 3/3 |
| G103N+T104K+F105I | 25 nM | 3/3 |
| V50C+D106V+S107T | 120 nM | 3/3 |
| G61R+K65W | 270 nM | 3/3 |